Values quoted from earlier work, collected in US20050176641A1, “Long lasting natriuretic peptide derivatives” (CONJUCHEM, INC., priority 2000, published 2005).

Conditions: cited from earlier work

## urodilatin
  in vivo half-life: approximately 6 min
